{"source": "patent US7740882B2", "about": "“Enhanced oral and transcompartmental delivery of therapeutic or diagnostic agents” (priority 2001, dated 2010)", "key": {"SMVT in BBMECs": {"molecular_target": "T1, SMVT in BBMECs (Bos taurus, UniProt A1L530)", "T1 construct": "endogenous in cells; host or cells: primary bovine brain microvessel endothelial cells (BBMECs)", "T1 sequence (A1L530 1-638)": "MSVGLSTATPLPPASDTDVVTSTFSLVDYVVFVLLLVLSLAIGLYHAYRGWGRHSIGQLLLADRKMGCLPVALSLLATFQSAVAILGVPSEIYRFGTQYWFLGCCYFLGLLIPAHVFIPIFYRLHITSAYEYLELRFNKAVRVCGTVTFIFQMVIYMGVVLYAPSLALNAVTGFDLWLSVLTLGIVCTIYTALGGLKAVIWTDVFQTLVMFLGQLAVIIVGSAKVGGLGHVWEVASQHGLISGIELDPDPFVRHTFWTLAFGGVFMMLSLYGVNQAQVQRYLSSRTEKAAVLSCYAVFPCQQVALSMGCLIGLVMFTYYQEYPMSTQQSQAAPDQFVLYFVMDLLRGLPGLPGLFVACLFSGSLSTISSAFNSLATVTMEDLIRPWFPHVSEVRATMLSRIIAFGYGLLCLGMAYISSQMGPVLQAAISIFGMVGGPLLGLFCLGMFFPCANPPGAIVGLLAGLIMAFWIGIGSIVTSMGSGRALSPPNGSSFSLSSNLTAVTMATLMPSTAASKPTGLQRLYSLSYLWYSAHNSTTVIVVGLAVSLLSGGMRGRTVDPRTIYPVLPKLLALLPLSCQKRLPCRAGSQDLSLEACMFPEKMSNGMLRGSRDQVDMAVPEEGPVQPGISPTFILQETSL", "assay": "Biotin uptake by BBMECs (characterization of biotin transporter)", "format": "in vitro ADME, bovine", "details": "Hill equation"}, "SMVT [1]": {"molecular_target": "T2, SMVT (Homo sapiens, UniProt Q9Y289)", "T2 sequence (Q9Y289 1-635)": "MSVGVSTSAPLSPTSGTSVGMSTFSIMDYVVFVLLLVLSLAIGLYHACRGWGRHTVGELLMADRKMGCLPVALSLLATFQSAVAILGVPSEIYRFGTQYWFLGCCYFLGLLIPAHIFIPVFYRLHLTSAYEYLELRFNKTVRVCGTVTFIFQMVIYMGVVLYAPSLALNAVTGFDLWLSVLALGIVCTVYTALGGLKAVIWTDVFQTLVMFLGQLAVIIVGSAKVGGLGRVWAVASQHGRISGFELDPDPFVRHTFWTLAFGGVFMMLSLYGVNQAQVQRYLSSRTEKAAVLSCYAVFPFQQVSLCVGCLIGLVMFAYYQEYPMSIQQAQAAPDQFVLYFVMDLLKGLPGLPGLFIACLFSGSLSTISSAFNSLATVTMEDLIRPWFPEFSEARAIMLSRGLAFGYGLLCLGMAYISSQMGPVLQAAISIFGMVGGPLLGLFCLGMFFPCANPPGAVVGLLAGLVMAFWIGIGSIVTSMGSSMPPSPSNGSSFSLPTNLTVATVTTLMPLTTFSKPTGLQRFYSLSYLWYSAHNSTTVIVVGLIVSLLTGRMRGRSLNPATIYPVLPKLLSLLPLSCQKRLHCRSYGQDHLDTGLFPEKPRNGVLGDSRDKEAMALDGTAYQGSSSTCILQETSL"}, "SMVT [2]": {"molecular_target": "T2, SMVT", "remark": "listed apart in the source"}}, "note": "Read-outs that look alike come from different tables or passages of the source.", "data": [{"smiles": "O=C(O)CCCC[C@@H]1SC[C@@H]2NC(=O)N[C@@H]21", "note": "[Biotin, biotin]", "values": [{"measurement": "Na+-biotin coupling ratio for SMVT", "setting": "SMVT in BBMECs", "value": 1}, {"measurement": "Ki", "setting": "SMVT [1]", "value": 7.88, "unit": "µM"}, {"measurement": "Ki", "setting": "SMVT [2]", "value": 6.78, "unit": "µM"}]}]}
